In the NIST ThermoML archive (doi:10.1021/je8000975):

Conditions: Liquid; for speed of sound: Sing-around technique in a fixed-path interferometer

Structure (SMILES): CCCCOCCCC [dibutyl ether]
- mass density (293.15 K): 768.468 ± 0.52 kg/m3
- speed of sound (293.15 K): 1181.8 ± 0.8 m/s
- mass density (298.15 K): 764.17 ± 0.53 kg/m3
- speed of sound (298.15 K): 1161.2 ± 0.79 m/s
- mass density (303.15 K): 759.829 ± 0.54 kg/m3
- speed of sound (303.15 K): 1142.1 ± 0.78 m/s

Numbers after ± are expanded uncertainties.
